# Reference: PubChem BioAssay AID588850 (Sanford-Burnham Center for Chemical Genomics, 2011)
# The entries are a selection whose mix differs from that of the whole data set. Some salts or complexes appear as unconnected parts, following the source record. Activity calls are given as the source filed them.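 Rule for the calls: active = at least 50% inhibition at 5 µM, scaled per plate between neutral and stimulator controls; inactive = the rest.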
# Experiment: inhibitors of PAF-induced NF-kB signaling, primary screen, cell-based, GFP fluorescence, uHTS (AID 588850);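 note: PAF is a Pseudomonas aeruginosa culture filtrate used as stimulus; plate controls were PAF-stimulated DMSO wells for no effect and unstimulated DMSO wells for full effect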
# Settings: KKLEB NF-kB-GFP reporter, GFP fluorescence overnight, at 5 µM, active compounds read high
row,Structure (SMILES),inhibition
1,O=[N+]([O-])c1cc([N+](=O)[O-])c(OC2CCCCC2O)c([N+](=O)[O-])c1 (stereo unspecified),inactive: -10.5%
2,CCCCCOc1ccc(NP(C)(=O)Oc2ccc(Cl)cc2Cl)cc1 (stereo unspecified),inactive: -7.1%
3,CP(=O)(Nc1ccccc1)Oc1ccc(F)cc1 (stereo unspecified),inactive: 13.7%
4,COc1ccc(OP(C)(=O)Nc2ccc(SC(F)(F)F)cc2)cc1 (stereo unspecified),inactive: -10.2%
5,CCOC(=O)c1ccc(NP(C)(=O)Oc2ccc(F)cc2)cc1 (stereo unspecified),inactive: 3.2%
6,O=C(OCCN1CCN(CCOCc2ccccc2)CC1)C(O)(c1ccccc1)c1ccccc1,inactive: 0.6%
7,O=C(OC1CN2CCC1CC2)c1ccc([N+](=O)[O-])cc1 (stereo unspecified),inactive: -3%
8,COc1ccc2c(c1O)-c1c(O)c(OC)cc3c1[C@H](C2)[N+](C)(C)CC3.O=[N+]([O-])c1cc([N+](=O)[O-])c([O-])c([N+](=O)[O-])c1[O-],inactive: 0.2%
9,O=[N+]([O-])c1cc([N+](=O)[O-])c(Nc2ccc(Cl)cc2)c([N+](=O)[O-])c1,inactive: 29.2%
10,CC(C)c1ccc(OP(C)(=O)Nc2ccc(SC(F)(F)F)cc2)cc1 (stereo unspecified),inactive: 9.5%
11,CP(=O)(Nc1ccccc1F)Oc1ccccc1 (stereo unspecified),inactive: 4.2%
12,CP(=O)(Nc1ccc2c(c1)OCCO2)Oc1ccccc1 (stereo unspecified),inactive: -0.1%
13,Cc1ccccc1NP(C)(=O)Nc1ccccc1C,inactive: -17.3%
14,CP(=O)(Nc1ccc(SC(F)(F)F)cc1)Oc1ccc(F)cc1 (stereo unspecified),inactive: -1.6%
15,CCOP(C)(=S)SCC(=O)NC(C)(CC)C(=O)O (stereo unspecified),inactive: 2.2%
16,Cc1cc(-c2cccc3ccccc23)c(C)cn1.O=[N+]([O-])c1cc([N+](=O)[O-])c(O)c([N+](=O)[O-])c1,inactive: 0.9%
17,O=[N+]([O-])c1cc([N+](=O)[O-])c(NCC2CCS(=O)(=O)C2)c([N+](=O)[O-])c1 (stereo unspecified),inactive: 25.1%
18,O=[N+]([O-])c1ccc(OP2(=O)COCCO2)cc1 (stereo unspecified),inactive: 1.4%
19,Cc1c(C(c2ccc3c(c2)OCO3)c2c(C)n(C)n(-c3ccccc3)c2=O)c(=O)n(-c2ccccc2)n1C.O=[N+]([O-])c1cc([N+](=O)[O-])c(O)c([N+](=O)[O-])c1,inactive: 19%
20,COc1ccc(OP(C)(=O)Nc2cccc(Br)c2)cc1 (stereo unspecified),inactive: -6.9%
21,COc1ccc(NP(C)(=O)Oc2ccccc2OC)cc1 (stereo unspecified),inactive: 4.2%
22,CN(C)CCOC(=O)C(O)(c1ccccc1)C1CCCCC1 (stereo unspecified),inactive: 4.3%

row,Structure (SMILES),inhibition
1,CN1CCCCC1COC(=O)C1(O)c2ccccc2CCc2ccccc21 (stereo unspecified),inactive: 4.5%
2,COc1ccccc1OP(C)(=O)Nc1c(C)cccc1C (stereo unspecified),inactive: -13.9%
3,CP(=O)(Nc1ccc(SC(F)(F)F)cc1)Oc1ccccc1 (stereo unspecified),inactive: -13.6%
4,CCCOc1ccc(NP(C)(=O)Oc2ccc(Cl)cc2)cc1 (stereo unspecified),inactive: 2.5%
5,CCOC(=O)C(CC)C1=NC(C)(C)Cc2ccccc21.O=[N+]([O-])c1cc([N+](=O)[O-])c(O)c([N+](=O)[O-])c1 (stereo unspecified),inactive: -17.9%
6,O=[N+]([O-])c1cc([N+](=O)[O-])c(Nc2nnnn2CCO)c([N+](=O)[O-])c1,inactive: 0.5%
7,CC1=C2N=C(C=C3N=C(C(C)=C4[N-][C@@](C)([C@@H]5N=C1[C@](C)(CCC(=O)NC[C@@H](C)OP(=O)([O-])O[C@H]1[C@@H](O)[C@@H](n6cnc7cc(C)c(C)cc76)O[C@@H]1CO)[C@H]5CC(N)=O)[C@@](C)(CC(N)=O)[C@@H]4CCC(N)=O)[C@@](C)(CC(N)=O)[C@@H]3CCC(N)=O)C(C)(C)[C@@H]2CCC(N)=O.[C-]#N.[Co+3],inactive: -12.1%
8,O=[N+]([O-])c1cc([N+](=O)[O-])c(-c2cnn(-c3ccccc3)c2)c([N+](=O)[O-])c1,inactive: 12.4%
9,Cc1nc2ccc3ccccc3c2s1.O=[N+]([O-])c1cc([N+](=O)[O-])c(O)c([N+](=O)[O-])c1,inactive: 16.2%
10,O=[N+]([O-])c1cc([N+](=O)[O-])c(-n2nnc3ccccc32)c([N+](=O)[O-])c1,inactive: -5.5%
11,CN(Cc1cccnc1)C(=O)COc1ccc(Cl)c(Cl)c1.O=[N+]([O-])c1cc([N+](=O)[O-])c(O)c([N+](=O)[O-])c1,inactive: -2.5%
12,CP(=O)(Nc1cccc(Br)c1)Oc1ccccc1 (stereo unspecified),inactive: -16.4%
13,Cc1cc(C)cc(OP(C)(=O)Nc2ccccn2)c1 (stereo unspecified),inactive: 4.2%
14,Cc1ccc(C)c(NP(C)(=O)Oc2ccccc2)c1 (stereo unspecified),inactive: 13.3%
15,COc1ccccc1OP(C)(=O)Nc1cccc(Br)c1 (stereo unspecified),inactive: -3.8%
16,Cc1cc(C)cc(OP(C)(=O)Nc2ccc(C)cc2C)c1 (stereo unspecified),inactive: 0.9%
17,CCOC(=O)c1ccc(NP(C)(=O)Oc2cc(C)cc(C)c2)cc1 (stereo unspecified),inactive: 4%
18,CC1=NCCc2c1[nH]c1ccccc21.O=[N+]([O-])c1cc([N+](=O)[O-])c(O)c([N+](=O)[O-])c1,inactive: 11.4%
19,O=C(O)c1cccc(Nc2c([N+](=O)[O-])cc([N+](=O)[O-])cc2[N+](=O)[O-])c1,inactive: -7.6%
20,CCOC(=O)c1ccc(NP(C)(=O)Oc2ccccc2)cc1 (stereo unspecified),inactive: 31.7%
21,Cc1ccc(NP(C)(=O)Oc2ccccc2)c(C)c1 (stereo unspecified),inactive: -1.2%
22,COc1ccccc1OP(C)(=O)Nc1ccc(C)cc1 (stereo unspecified),inactive: 1.3%

row,Structure (SMILES),inhibition
1,COc1ccc(OP(C)(=O)Nc2cccc(F)c2)cc1 (stereo unspecified),inactive: 8.6%
2,COc1ccccc1OP(C)(=O)Nc1cc(Cl)ccc1C (stereo unspecified),inactive: 27.9%
3,Cc1cc(C)cc(OP(C)(N)=O)c1 (stereo unspecified),inactive: -11.6%
4,O=[N+]([O-])c1cc([N+](=O)[O-])c(Nc2cccnc2)c([N+](=O)[O-])c1,inactive: 39.6%
5,Cc1cccc(C)c1OP(C)(N)=O (stereo unspecified),inactive: -5%
6,CC(C)(C)c1ccc(OP(C)(=O)Nc2ccc(SC(F)(F)F)cc2)cc1 (stereo unspecified),inactive: 8.4%
7,O=[N+]([O-])c1ccc2c(c1)C=Nc1ccccc1O2,inactive: 46.3%
8,CCN(CC)CCCOC(=O)C(O)(c1ccccc1)c1ccccc1,inactive: -10.2%
9,CCOP(C)(=S)SCC(=O)NC(C)C(=O)O (stereo unspecified),inactive: -2.3%
10,O=[N+]([O-])c1cc([N+](=O)[O-])c(O)c([N+](=O)[O-])c1.c1ccc(Oc2ccncc2)cc1,inactive: -5.5%
11,CCOC(=O)c1ccc(NP(C)(=O)Oc2ccc(OC)cc2)cc1 (stereo unspecified),inactive: 6.5%
12,CP(=O)(Nc1ccccn1)Oc1ccc(Cl)cc1 (stereo unspecified),inactive: 6.7%
13,CP(=O)(Oc1ccccc1)OC(c1ccccc1)C(F)(F)F (stereo unspecified),inactive: 2.5%
14,CP(=O)(Nc1ccc(SC(F)(F)F)cc1)Oc1ccc(Cl)cc1 (stereo unspecified),inactive: 15.5%
15,Cc1ccc(Nc2c([N+](=O)[O-])cc([N+](=O)[O-])cc2[N+](=O)[O-])cc1,inactive: 45.7%
16,Cc1cccc(C)c1OP(C)(=O)Nc1ccc(SC(F)(F)F)cc1 (stereo unspecified),inactive: 5%
17,Cc1cc(C)cc(OP(C)(=O)Nc2ccc(SC(F)(F)F)cc2)c1 (stereo unspecified),inactive: -2.8%
18,CCc1ccc(OP(C)(=O)N2CCN(c3ccc([N+](=O)[O-])cc3)CC2)cc1 (stereo unspecified),inactive: -9.2%
19,CP(=O)(NC(=O)Nc1ccccc1)Oc1ccccc1 (stereo unspecified),inactive: 12%
20,CP(=S)(Nn1cnnc1)Oc1ccccc1 (stereo unspecified),inactive: 1.1%
21,COc1ccccc1OP(C)(=O)Nc1ccccc1 (stereo unspecified),inactive: -4.9%
22,CP(=O)(Nc1ccccc1Br)Oc1ccccc1 (stereo unspecified),inactive: 0.2%
